# Target: Human platelet COX I (Homo sapiens, UniProt P23219)
# By UniProt entry, the sequences of proteins in these tests, tags left out. Residues count along the entry.
# UniProt P23219, 24-599: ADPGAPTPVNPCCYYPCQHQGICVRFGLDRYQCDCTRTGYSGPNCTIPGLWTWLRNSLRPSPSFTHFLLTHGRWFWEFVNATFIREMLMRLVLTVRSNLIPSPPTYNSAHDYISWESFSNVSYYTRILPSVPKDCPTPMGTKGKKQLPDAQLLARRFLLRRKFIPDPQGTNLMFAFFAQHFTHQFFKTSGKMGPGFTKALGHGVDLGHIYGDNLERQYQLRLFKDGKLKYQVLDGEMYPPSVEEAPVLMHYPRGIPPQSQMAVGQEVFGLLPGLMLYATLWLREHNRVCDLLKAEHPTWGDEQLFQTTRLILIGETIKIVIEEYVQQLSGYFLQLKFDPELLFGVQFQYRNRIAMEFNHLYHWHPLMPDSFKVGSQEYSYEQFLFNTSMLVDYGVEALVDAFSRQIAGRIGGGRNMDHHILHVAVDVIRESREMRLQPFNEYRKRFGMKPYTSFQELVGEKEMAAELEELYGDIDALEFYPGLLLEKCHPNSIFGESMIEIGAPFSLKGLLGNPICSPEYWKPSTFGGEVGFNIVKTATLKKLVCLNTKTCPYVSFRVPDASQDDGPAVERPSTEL
# Experiment: COX I inhibition in human platelets (PGE2 EIA)
structure (smiles),measurement,value
O=C(O)c1cccnc1Nc1cccc(C(F)(F)F)c1 [Niflumic acid],IC50,> 10 µM

# — US20090155395A1 (SAGITTARIUS LIFE SCIENCE CORP., priority 2007, published 2009)
